In PMC9951332 (Advanced Science, 2022):

Target: T1, recombinant CD73 (SPR analyte) (UniProt P21589 27-549)
T1 construct: CD73 (NT5E), recombinant; May be the same protein as m6 (His-CD73); source: recombinant
T1 sequence (looked up): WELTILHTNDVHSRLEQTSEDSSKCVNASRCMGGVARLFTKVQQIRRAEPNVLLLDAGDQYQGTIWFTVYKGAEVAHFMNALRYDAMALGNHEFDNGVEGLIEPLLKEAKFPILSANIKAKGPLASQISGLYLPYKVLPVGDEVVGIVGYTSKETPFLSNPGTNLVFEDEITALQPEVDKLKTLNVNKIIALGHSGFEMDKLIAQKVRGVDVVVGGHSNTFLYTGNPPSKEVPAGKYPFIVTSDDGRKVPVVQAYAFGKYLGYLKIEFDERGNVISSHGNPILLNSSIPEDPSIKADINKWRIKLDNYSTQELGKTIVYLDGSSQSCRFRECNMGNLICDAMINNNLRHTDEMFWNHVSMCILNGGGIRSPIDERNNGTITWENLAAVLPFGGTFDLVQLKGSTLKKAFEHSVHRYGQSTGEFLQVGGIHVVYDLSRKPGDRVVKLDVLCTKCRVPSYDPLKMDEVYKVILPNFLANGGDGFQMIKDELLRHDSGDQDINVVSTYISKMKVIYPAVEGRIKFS
Test: SPR; Biacore 8K, CM5 sensor chip; TRIM21 immobilised; recombinant CD73 at 96, 48, 24, 12, 6 and 3 nM or Snail at 64, 32, 16, 8, 4 and 2 nM flowed over
Details: both partners purified

Kd: 6.2 ± 0.7 nM
B1: TRIM21 immobilised on the SPR chip (natural protein, UniProt P19474 1-475, looked up)
chain: MASAARLTMMWEEVTCPICLDPFVEPVSIECGHSFCQECISQVGKGGGSVCPVCRQRFLLKNLRPNRQLANMVNNLKEISQEAREGTQGERCAVHGERLHLFCEKDGKALCWVCAQSRKHRDHAMVPLEEAAQEYQEKLQVALGELRRKQELAEKLEVEIAIKRADWKKTVETQKSRIHAEFVQQKNFLVEEEQRQLQELEKDEREQLRILGEKEAKLAQQSQALQELISELDRRCHSSALELLQEVIIVLERSESWNLKDLDITSPELRSVCHVPGLKKMLRTCAVHITLDPDTANPWLILSEDRRQVRLGDTQQSIPGNEERFDSYPMVLGAQHFHSGKHYWEVDVTGKEAWDLGVCRDSVRRKGHFLLSSKSGFWTIWLWNKQKYEAGTYPQTPLHLQVPPCQVGIFLDYEAGMVSFYNITDHGSLIYSFSECAFTGPLRPFFSPGFNDGGKNTAPLTLCPLNIGSQGSTDY
notes: TRIM21 immobilised on a CM5 chip; May be the same protein as m5 (GST-TRIM21)
